Experimental data reported in ChEMBL document CHEMBL4229563, “Identification of the First PPARα/γ Dual Agonist Able To Bind to Canonical and Alternative Sites of PPARγ and To Inhibit Its Cdk5-Mediated Phosphorylation” (J Med Chem, 2018).
Active and inactive are the calls of the source. No cut-off for these calls is given here.

biological target: T1, Peroxisome proliferator-activated receptor alpha (Homo sapiens) (UniProt Q07869); test: Transactivation of GAL4-tagged human PPARalpha LBD expressed in human HepG2 cells after 20 hrs by luciferase reporter gene assay relative to Wy-14,643; format: cell-based
T1 sequence (whole entry): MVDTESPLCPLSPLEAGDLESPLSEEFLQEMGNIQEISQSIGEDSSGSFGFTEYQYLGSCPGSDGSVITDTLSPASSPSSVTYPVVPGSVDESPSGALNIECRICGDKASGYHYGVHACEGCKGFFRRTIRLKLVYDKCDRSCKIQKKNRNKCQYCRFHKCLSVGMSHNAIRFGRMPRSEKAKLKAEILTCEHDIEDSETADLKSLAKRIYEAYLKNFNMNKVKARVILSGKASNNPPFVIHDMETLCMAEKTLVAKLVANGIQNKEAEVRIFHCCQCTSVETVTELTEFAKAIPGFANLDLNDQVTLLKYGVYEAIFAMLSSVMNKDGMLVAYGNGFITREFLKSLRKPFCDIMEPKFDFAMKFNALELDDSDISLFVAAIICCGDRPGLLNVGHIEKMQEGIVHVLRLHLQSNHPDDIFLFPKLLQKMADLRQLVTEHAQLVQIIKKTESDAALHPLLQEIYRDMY

Emax	SMILES
inactive	O=C(O)[C@@H](Cc1ccc(-c2ccc(O[C@H](Cc3ccccc3)C(=O)O)cc2)cc1)Oc1ccc(-c2ccccc2)cc1
47%	O=C(O)[C@H](Cc1ccc(-c2ccc(O[C@@H](Cc3ccccc3)C(=O)O)cc2)cc1)Oc1ccc(-c2ccccc2)cc1
13%	O=C(O)[C@H](Cc1ccc(-c2ccc(O[C@H](Cc3ccccc3)C(=O)O)cc2)cc1)Oc1ccc(-c2ccccc2)cc1
4%	O=C(O)[C@H](Cc1ccccc1)Oc1ccc(-c2ccc(C[C@@H](Oc3ccc(-c4ccccc4)cc3)C(=O)O)cc2)cc1
